The values below come from article PMC4510350 (PLoS Neglected Tropical Diseases, 2015).

In one data set the test system is B. thailandensis (E264). The following applies: 3 h, pH 7.4.
For data set [1] the following is noted: at the antimicrobial concentrations used; cited from earlier work.

On to `CC[C@H](C)[C@H](NC(=O)[C@@H](NC(=O)[C@H](CCCCN)NC(=O)[C@@H]1CCCN1C(=O)[C@H](CCCCN)NC(=O)[C@H](CCCCN)NC(=O)[C@H](Cc1ccccc1)NC(=O)[C@H](Cc1ccccc1)NC(=O)[C@H](CCCCN)NC(=O)[C@H](CCCCN)NC(=O)[C@H](C)NC(=O)[C@H](CCCNC(=N)N)NC(=O)[C@H](CCCCN)NC(=O)[C@H](CCCCN)NC(=O)[C@@H](NC(=O)[C@H](CO)NC(=O)[C@H](CC(N)=O)NC(=O)[C@H](CCCCN)NC(=O)[C@H](CC(C)C)NC(=O)[C@H](CCCCN)NC(=O)[C@H](CCCCN)NC(=O)[C@H](Cc1ccccc1)NC(=O)[C@H](Cc1ccccc1)NC(=O)[C@H](CCCCN)NC(=O)[C@H](CCCCN)NC(=O)[C@H](Cc1ccccc1)NC(=O)[C@H](CCCNC(=N)N)NC(=O)[C@@H](N)CCCCN)C(C)C)C(C)C)C(=O)NCC(=O)N[C@H](C(=O)N[C@H](C(=O)N[C@@H](Cc1ccccc1)C(=O)N1CCC[C@H]1C(=O)N[C@@H](Cc1ccccc1)C(=O)O)[C@@H](C)O)C(C)C` [NA-CATH], for which a half-maximal response with B. thailandensis (E264) (EC50) required 877 nM. The hemolysis entry in data set [1] is “no hemolysis”.
